In patent publication US11541006B2, “Aqueous formulation for insoluble drugs” (priority 2018, dated 2023):

Assay: Solubility of insoluble drugs in F96 LMBW vehicle (Example 4)
Format: physicochemical
Conditions: stepwise addition until no longer dissolving

Substance: Casein
- Measured solubility in F96 LMBW Vehicle: 1000 µg/mL
